One test concerns the target AR wildtype (wt) (Homo sapiens, UniProt P10275).
The target of test [1] is AR full length (AR FL) in LNCaP cells (Homo sapiens, UniProt P10275, T878A).
For test [2], the target named is AR splice variant (AR SV) in 22RV1 cells (Homo sapiens, UniProt P10275).

By UniProt entry, the sequences of proteins in these tests, tags left out. Residues count along the entry.
UniProt P10275, whole entry T878A: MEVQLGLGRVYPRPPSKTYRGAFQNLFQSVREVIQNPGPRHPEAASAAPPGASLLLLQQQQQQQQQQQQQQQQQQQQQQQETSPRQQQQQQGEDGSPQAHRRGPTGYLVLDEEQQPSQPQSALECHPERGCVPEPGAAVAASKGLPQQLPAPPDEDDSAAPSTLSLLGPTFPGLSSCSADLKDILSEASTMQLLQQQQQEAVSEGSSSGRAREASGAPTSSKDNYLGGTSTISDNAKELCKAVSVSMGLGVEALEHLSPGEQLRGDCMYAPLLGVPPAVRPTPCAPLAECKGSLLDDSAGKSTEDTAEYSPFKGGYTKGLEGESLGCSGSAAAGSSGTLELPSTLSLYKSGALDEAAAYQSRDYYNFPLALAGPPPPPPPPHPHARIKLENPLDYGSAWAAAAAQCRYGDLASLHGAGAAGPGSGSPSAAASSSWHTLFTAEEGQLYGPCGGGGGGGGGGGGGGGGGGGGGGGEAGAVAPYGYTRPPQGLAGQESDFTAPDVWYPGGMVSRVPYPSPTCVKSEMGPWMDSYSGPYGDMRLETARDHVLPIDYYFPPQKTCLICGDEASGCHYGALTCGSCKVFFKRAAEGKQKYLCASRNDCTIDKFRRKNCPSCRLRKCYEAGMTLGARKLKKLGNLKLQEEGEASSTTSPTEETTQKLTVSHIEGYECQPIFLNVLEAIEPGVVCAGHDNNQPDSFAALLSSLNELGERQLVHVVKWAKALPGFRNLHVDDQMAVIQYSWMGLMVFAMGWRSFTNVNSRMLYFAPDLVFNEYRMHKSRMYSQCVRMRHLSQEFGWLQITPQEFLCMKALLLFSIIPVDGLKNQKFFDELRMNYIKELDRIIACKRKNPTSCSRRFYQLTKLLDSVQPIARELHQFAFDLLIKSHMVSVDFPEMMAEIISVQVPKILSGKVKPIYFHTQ
UniProt P10275, 1-644 isoform P10275-3: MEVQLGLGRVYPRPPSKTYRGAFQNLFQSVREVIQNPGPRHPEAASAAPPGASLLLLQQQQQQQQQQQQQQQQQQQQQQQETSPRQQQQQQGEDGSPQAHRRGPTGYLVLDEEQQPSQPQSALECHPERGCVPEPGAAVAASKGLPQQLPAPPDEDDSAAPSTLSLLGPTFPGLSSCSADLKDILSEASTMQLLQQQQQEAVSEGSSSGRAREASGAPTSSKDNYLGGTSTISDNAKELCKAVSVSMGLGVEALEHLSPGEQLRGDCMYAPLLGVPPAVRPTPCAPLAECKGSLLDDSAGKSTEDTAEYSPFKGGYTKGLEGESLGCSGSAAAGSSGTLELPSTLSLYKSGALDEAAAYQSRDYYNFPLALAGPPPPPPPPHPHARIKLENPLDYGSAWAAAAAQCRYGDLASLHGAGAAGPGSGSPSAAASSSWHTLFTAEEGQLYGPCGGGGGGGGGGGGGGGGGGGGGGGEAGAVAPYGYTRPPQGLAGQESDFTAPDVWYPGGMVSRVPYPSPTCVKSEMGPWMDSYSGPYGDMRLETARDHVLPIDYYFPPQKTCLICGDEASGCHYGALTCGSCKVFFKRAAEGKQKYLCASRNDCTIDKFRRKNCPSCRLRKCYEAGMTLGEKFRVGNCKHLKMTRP

Entries after “also recorded” stand apart in the source; their conditions may differ.

For the molecule `C[C@](O)(CNC(=O)c1cn[nH]c1)C(=O)Nc1ccc(C#N)c(C(F)(F)F)c1` [Compound 1076, (S)-N-(3-((4-Cyano-3-(trifluoromethyl)phenyl)amino)-2-hydroxy-2-methyloxopropyl)-1H-pyrazole-4-carboxamide], on AR wildtype (wt), the “wtAR inhibitory activity / potency range in words” value is “agonist”. In test [1], the “SARD activity: AR FL degradation in words” value is “some SARD activity; also recorded: significant SARD activity”. In addition, in test [2], the “SARD Activity S.V. (22RV1) % degradation at 10 μM” value was 60% and the “SARD activity: AR SV (AR-V7) degradation in words” value is given as “some SARD activity; also recorded: significant SARD activity”.

Values taken from patent publication US20230146829A1 (priority 2020, published 2023).
